The target of the data set is MafG-His;GST-HBZ (human?;HTLV-1, UniProt O15525;P0C746-2 1-162;1-206, |). The experiment in a line: EMSA; complex substantially increased over MafG alone; EMSA: 0.5x TM (100 mM Tris-HCl pH 7.5, 20 mM MgSO4 as printed), 1 mM DTT, 1 ug BSA, 100 ng poly(dA)-poly(dT), 2-10 fmol probe, 20 C, 1 h; proteins stored in 50. As to conditions: protein: recombinant;recombinant; tags: 6xHis (pRSET A);GST; copies: 1;1; label: 32P end label. (Mobility shift assays separate free from complexed probe on a gel.)

B1: T-MARE probe (dsDNA)
DNA 1: AGCTCGGAATTGCTGACTCAGCATTACTCTCG
DNA 2: CGAGAGTAATGCTGAGTCAGCAATTCCGAGCT
In the case of B1, the binding result was “binds”.

(Values after publication PMC6623464, “HTLV-1 basic leucine zipper factor protects cells from oxidative stress by upregulating expression of Heme Oxygenase I”.)
